According to ChEMBL document CHEMBL1137024, “Acyl-CoA: cholesterol acyltransferase inhibitory activities of fatty acid amides isolated from Mylabris phalerate Pallas” (Bioorg Med Chem Lett, 2004):

These molecules were tested against T1, Sterol O-acyltransferase 1 (Rattus norvegicus, UniProt O70536) (assay: Inhibitory activity against rat liver microsomal Acyl coenzyme A:cholesterol acyltransferase).
T1 sequence (O70536 whole entry): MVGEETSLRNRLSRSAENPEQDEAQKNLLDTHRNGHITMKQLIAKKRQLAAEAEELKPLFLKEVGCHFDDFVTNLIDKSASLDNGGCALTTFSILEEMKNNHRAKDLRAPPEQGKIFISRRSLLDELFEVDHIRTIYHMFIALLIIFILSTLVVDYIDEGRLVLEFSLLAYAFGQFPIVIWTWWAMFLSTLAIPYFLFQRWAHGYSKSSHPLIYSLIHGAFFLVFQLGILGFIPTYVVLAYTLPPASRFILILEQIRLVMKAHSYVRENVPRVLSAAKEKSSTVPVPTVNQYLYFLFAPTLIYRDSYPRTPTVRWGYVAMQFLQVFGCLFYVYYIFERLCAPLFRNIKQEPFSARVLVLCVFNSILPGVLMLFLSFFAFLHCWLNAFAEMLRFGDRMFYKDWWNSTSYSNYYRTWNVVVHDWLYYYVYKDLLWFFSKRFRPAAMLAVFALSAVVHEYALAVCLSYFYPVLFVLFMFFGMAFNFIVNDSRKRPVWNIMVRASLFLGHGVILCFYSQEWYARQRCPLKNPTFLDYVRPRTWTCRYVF

| SMILES | IC50 [µM] |
| --- | --- |
| CCCCC/C=C\C/C=C\CCCCCCCC(N)=O | 150 |
| CCCCCCCC/C=C\CCCCCCCC(N)=O [OLEAMIDE] | 170 |
| CCCCCCCCC=CCCCCCCCC(=O)Nc1ccccc1 [OLEIC ACID ANILIDE] | 0.02 |
